# pEC50: −log10 of the molar value.
# Legend:
# LnCAP cells = assay: LnCAP gene expression; assay type: cell-based, human; details: PSA
# [1] = tested on: orchidectomized (ORX) rats; assay: Testosterone induced prostate and seminal vesicle growth in delayed ORX rat model; assay type: in vivo; details: ORX + Example 1, 10 mg/kg/d (no TE) vs ORX + TE; Dunnett
# Excerpt: Orchidectomized (ORX) and sham-operated Wistar male rats were used (orchidectomized at 8 weeks of age and allowed to waste for 4 weeks). […] Rats were randomized and placed into treatment groups (n=6) based on body weight. Route of administration for all groups except testosterone enanthate (TE was given sub-cutaneously) was oral. At the end of 2 weeks of daily rats were euthanized, weighed & tissue harvested. Levator ani, prostates, and seminal vesicles were collected from each animal. Results are plotted as means±SE.
smiles,measurement,setting,value
"CC(C)OC(=O)N[C@H]1Cc2c(n(Cc3ccccn3)c3ccc(C#N)cc23)C1 [compound of Formula II, (S)-(7-cyano-4-pyridin-2-ylmethyl-1,2,3,4-tetrahydro-cyclopenta[b]indol-2-yl)-carbamic acid isopropyl ester]",pEC50,LnCAP cells,8.58
same,prostate weights Abs(Dif)-LSD,[1],0.357

# Reference: patent US20230096602A1, “TETRAHYDROCYCLOPENTA[B]INDOLE COMPOUNDS FOR TREATMENT OF RENAL DISEASE” (Eirgen Pharma Ltd., priority 2020, published 2023)
